Assay [1] is described as follows: Selectivity ratio of inhibition of recombinant human CYP2C9 to IC50 for inhibition of recombinant mouse soluble epoxide hydrolase.
The nature of assay [2]: Selectivity ratio of inhibition of recombinant human CYP1A2 to IC50 for inhibition of recombinant mouse soluble epoxide hydrolase.
Assay [3] is filed under the species Homo sapiens. In words: Selectivity ratio of inhibition of recombinant human CYP2C9 to IC50 for inhibition of recombinant human soluble epoxide hydrolase.
Assay [4] addresses T1, Polyunsaturated fatty acid 5-lipoxygenase (Homo sapiens) (UniProt P09917).
T1 sequence (whole entry): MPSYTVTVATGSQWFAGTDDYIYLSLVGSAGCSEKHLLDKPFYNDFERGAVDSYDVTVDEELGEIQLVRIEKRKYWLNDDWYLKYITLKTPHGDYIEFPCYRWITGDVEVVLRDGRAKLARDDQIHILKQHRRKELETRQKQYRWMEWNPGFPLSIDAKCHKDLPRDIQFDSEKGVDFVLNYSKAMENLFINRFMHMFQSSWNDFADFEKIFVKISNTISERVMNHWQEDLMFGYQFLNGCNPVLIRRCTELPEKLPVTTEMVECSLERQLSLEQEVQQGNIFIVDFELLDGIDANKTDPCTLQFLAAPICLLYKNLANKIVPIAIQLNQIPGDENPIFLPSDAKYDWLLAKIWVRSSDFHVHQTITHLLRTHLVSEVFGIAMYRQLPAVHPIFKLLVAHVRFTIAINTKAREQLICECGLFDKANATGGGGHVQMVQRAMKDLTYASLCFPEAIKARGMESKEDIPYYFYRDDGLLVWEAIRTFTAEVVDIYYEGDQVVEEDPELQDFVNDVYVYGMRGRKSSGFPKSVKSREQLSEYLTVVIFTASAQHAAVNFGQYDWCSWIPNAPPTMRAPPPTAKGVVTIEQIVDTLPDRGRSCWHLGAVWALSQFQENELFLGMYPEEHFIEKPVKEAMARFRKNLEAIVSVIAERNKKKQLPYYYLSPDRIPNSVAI
As to the kind of experiment: Inhibition of recombinant human full-length LOX5 (1 to 674 residues) expressed in insect cells using arachidonic acid as substrate preincubated for 10 mins followed by substrate addition measured after 20 mins by H2DCFDA probe based fluorescence assay. As to conditions: time 30.0 min.

The nature of assay [5]: Selectivity ratio of inhibition of recombinant human CYP3A4 to IC50 for inhibition of recombinant mouse soluble epoxide hydrolase using DBF as substrate.
Assay [6] can be described thus: Selectivity ratio of inhibition of recombinant human CYP3A4 to IC50 for inhibition of recombinant mouse soluble epoxide hydrolase using 7-BFC as substrate.
The species named for assay [7] is Homo sapiens. As to the kind of experiment: Selectivity ratio of inhibition of recombinant human CYP1A2 to IC50 for inhibition of recombinant human soluble epoxide hydrolase.
The species named for assay [8] is Homo sapiens. In words: Selectivity ratio of inhibition of recombinant human CYP2D6 to IC50 for inhibition of recombinant human soluble epoxide hydrolase.
The species entered for assay [9] is Homo sapiens. As to the kind of experiment: Selectivity ratio of inhibition of recombinant human CYP3A4 to IC50 for inhibition of recombinant human soluble epoxide hydrolase using DBF as substrate.
The species named for assay [10] is Homo sapiens. As to the kind of experiment: Selectivity ratio of inhibition of recombinant human CYP2C19 to IC50 for inhibition of recombinant human soluble epoxide hydrolase.
The species entered for assay [11] is Homo sapiens. As to the kind of experiment: Selectivity ratio of inhibition of recombinant human CYP3A4 to IC50 for inhibition of recombinant human soluble epoxide hydrolase using 7-BFC as substrate.
A short description of assay [12]: Selectivity ratio of inhibition of recombinant human CYP2D6 to IC50 for inhibition of recombinant mouse soluble epoxide hydrolase.
Assay [13] in a line: Selectivity ratio of inhibition of recombinant human CYP2C19 to IC50 for inhibition of recombinant mouse soluble epoxide hydrolase.

Activity calls are given as the source filed them. The calls are words filed in the database; no cut-off is given here.

In the case of `CC(C)S(=O)(=O)N1CCC(NC(=O)NC23CC4CC(CC(C4)O2)C3)CC1`, the Selectivity ratio (in [1]; in assay [2]; in the assay filed under Homo sapiens [3]; in [5]; in assay [6]; in the assay listed under Homo sapiens [7]) was more than 100 throughout. Moreover, the Selectivity ratio (in the assay listed under Homo sapiens [8]; in the assay listed under Homo sapiens [9]; in the assay listed under Homo sapiens [10]; in the assay listed under Homo sapiens [11]; in assay [12]; in assay [13]) was more than 100 each time. Also, the inhibition entry in [4] is “inactive”.

For the origin of these results see ChEMBL document CHEMBL4725350, “2-Oxaadamant-1-yl Ureas as Soluble Epoxide Hydrolase Inhibitors: In Vivo Evaluation in a Murine Model of Acute Pancreatitis” (J Med Chem, 2020).
